Amino acid sequences for entries named in this document (tags omitted). Residues count along the entry.
UniProt P56817, 46-501: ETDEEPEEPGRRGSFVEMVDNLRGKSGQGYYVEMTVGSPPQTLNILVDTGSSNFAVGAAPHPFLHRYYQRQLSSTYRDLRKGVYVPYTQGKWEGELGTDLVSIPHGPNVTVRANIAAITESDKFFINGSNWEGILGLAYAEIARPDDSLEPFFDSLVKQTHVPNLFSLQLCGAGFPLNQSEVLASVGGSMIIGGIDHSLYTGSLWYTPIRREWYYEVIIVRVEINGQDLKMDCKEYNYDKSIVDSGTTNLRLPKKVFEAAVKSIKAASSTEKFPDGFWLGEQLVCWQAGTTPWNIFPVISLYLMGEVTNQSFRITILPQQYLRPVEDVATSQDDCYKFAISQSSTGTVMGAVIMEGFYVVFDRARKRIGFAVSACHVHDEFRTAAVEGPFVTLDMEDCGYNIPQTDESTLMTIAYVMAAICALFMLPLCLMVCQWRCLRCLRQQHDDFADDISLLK

According to US9296734B2 (AMGEN INC., priority 2013, dated 2016):

How the values were obtained:
[1] = molecular target: Beta Secretase enzyme (BACE) (Homo sapiens (Human), UniProt P56817); experiment: In vitro enzymatic BACE FRET assay; type: biochemical; settings: read-out: BACE 1 FRET assay IC50
Experimental: In Vitro Enzymatic BACE FRET (Fluorescence Resonance Energy Transfer) Assay (Enzyme Assay Data in the Example Table I)
The assay buffer used in this screen is 0.05 M acetate, pH 4.2, 10% DMSO final, 100 uM genapol (which is a nonionic detergent, below its Critical Micelle Concentration). […] This assay is effectively started by the addition of FRET substrate (50 nM) and the combination is incubated for one hour. The FRET assay is terminated with by addition of Tris buffer, which raises the pH to neutrality, and the fluorescence is determined. The FRET substrate is a peptide with commercially available fluorophore and quencher, on opposite sides of the BACE cleavage site.

[2] = system: Aβ40 in conditioned medium of cells stably expressing Amyloid Precursor Protein (APP); experiment: In vitro BACE cell-based assay (Aβ40 sandwich ELISA); settings: Homo sapiens
Experimental: In Vitro BACE Cell-Based Assay
The cell-based assay measures inhibition or reduction of Aβ40 in conditioned medium of test compound treated cells expressing amyloid precursor protein.
Cells stably expressing Amyloid Precursor Protein (APP) were plated at a density of 40K cells/well in 96 well plates (Costar). The cells were cultivated for 24 hours at 37° C. and 5% CO2 in DMEM supplemented with 10% FBS. The test compounds were then added to cells in 10-point dose response concentrations with the starting concentration being either 100 μM or 10 μM. The compounds were diluted from stock solutions in DMSO and the final DMSO concentration of the test compounds on cells was 0.1%. After 24 h of incubation with the test compounds the supernatant conditioned media was collected and the Aβ 40 levels were determined using a sandwich ELISA. The IC50 of the compound was calculated from the percent of control or percent inhibition of Aβ 40 as a function of the concentration of the test compound.
The sandwich ELISA to detect Aβ 40 was performed in 96 well microtiter plates, which were pre-treated with goat anti-rabbit IgG (Pierce). The capture and detecting antibody pair that were used to detect Aβ 40 from cell supernatants were affinity purified pAb40 (Biosource) and biotinylated 6E10 (Signet Labs Inc.), respectively. The optimal concentration for the pAb40 antibody was 3 μg/ml in Superblock/TBS (Pierce) that was supplemented with 0.05% Tween 20 (Sigma).
Cellular supernatants were incubated with the capture antibody for 3 h at 4° C., followed by 3 wash steps in TBS-tween (0.05%). The detecting antibody incubation was for 2 h at 4° C., again followed by the wash steps as described previously. The final readout of the ELISA is Time-Resolved Fluorescence (counts per minute) using Delfia reagents Streptavidin-Europium and Enhancement solutions (Perkin Elmer) and the Victor 2 multilabel counter (Perkin Elmer).

[3] = HEK293, average IC50, HEK cells, read-out: HEK cell assay IC50
[4] = average IC50, BACE enzyme assay
[5] = HEK293, average IC50, HEK cell assay, read-out: HEK cell assay IC50

SMILES | IC50 ([1]; average IC50) | IC50 [2, 3] | IC50 [1, 4] | IC50 [2, 5] | also measured
COc1cnc(C(=O)Nc2ccc(F)c([C@]3(CF)C[C@H](C(F)(F)F)OC(N)=N3)c2)cn1 (racemic) [Example 25, N-(3-((4S,6R)-2-amino-4-(fluoromethyl)-6-(trifluoromethyl)-5,6-dihydro-4H-1,3-oxazin-4-yl)-4-fluorophenyl)-5-methoxypyrazine-2-carboxamide] | 813 nM | 2370 nM | – | – | –
Cc1cc(Cl)cnc1C(=O)Nc1ccc(F)c([C@]2(C)C[C@@H](C(F)(F)F)OC(N)=N2)c1 (racemic) [Example 31, N-(3-((4SR,6SR)-2-amino-4-methyl-6-(trifluoromethyl)-5,6-dihydro-4H-1,3-oxazin-4-yl)-4-fluorophenyl)-5-chloro-3-methyl-2-pyridinecarboxamide] | 16.5 nM | – | – | – | IC50 ([2]; HEK293, read-out: HEK cell assay IC50): 14.4 nM
N#Cc1cnc2c(Nc3ccc(F)c([C@]4(CF)C[C@@H](C(F)(F)F)OC(N)=N4)c3)ncc(F)c2c1 [Example 10, 8-((3-((4S,6S)-2-amino-4-(fluoromethyl)-6-(trifluoromethyl)-5,6-dihydro-4H-1,3-oxazin-4-yl)-4-fluorophenyl)amino)-5-fluoro-1,7-naphthyridine-3-carbonitrile] | 10.1 nM | 108 nM | – | – | –
NC1=N[C@](CF)(c2cc(Nc3ncc(F)c4cc(Cl)cnc34)ccc2F)C[C@@H](C(F)(F)F)O1 [Example 19, (4S,6S)-4-(5-((3-chloro-5-fluoro-1,7-naphthyridin-8-yl)amino)-2-fluorophenyl)-4-(fluoromethyl)-6-(trifluoromethyl)-5,6-dihydro-4H-1,3-oxazin-2-amine] | – | – | 29 nM | 552 nM | –
NC1=N[C@](CF)(c2cc(Nc3ncnc4sc(C(F)F)nc34)ccc2F)C[C@@H](C(F)(F)F)O1 [Example 21, (4S,6S)-4-(5-((2-(difluoromethyl)thiazolo[5,4-d]pyrimidin-7-yl)amino)-2-fluorophenyl)-4-(fluoromethyl)-6-(trifluoromethyl)-5,6-dihydro-4H-1,3-oxazin-2-amine] | – | – | 269 nM | 506 nM | –
COc1cnc(C(=O)Nc2ccc(F)c([C@]3(CF)C[C@@H](C(F)(F)F)OC(N)=N3)c2)c(C)n1 [Example 33, N-(3-((4S,6S)-2-amino-4-(fluoromethyl)-6-(trifluoromethyl)-5,6-dihydro-4H-1,3-oxazin-4-yl)-4-fluorophenyl)-5-methoxy-3-methylpyrazine-2-carboxamide] | 73.6 nM | 100 nM | – | – | –
C#CCOc1cnc(C(=O)Nc2ccc(F)c([C@]3(CF)C[C@@H](C(F)(F)F)OC(N)=N3)c2)cn1 [Example 35, N-(3-((4S,6S)-2-amino-4-(fluoromethyl)-6-(trifluoromethyl)-5,6-dihydro-4H-1,3-oxazin-4-yl)-4-fluorophenyl)-5-(prop-2-yn-1-yloxy)pyrazine-2-carboxamide] | – | – | 2.3 nM | 5.1 nM | –
Cc1nc(OCC(F)(F)F)cnc1C(=O)Nc1ccc(F)c([C@]2(CF)C[C@@H](C(F)(F)F)OC(N)=N2)c1 [Example 38, N-(3-((4S,6S)-2-amino-4-(fluoromethyl)-6-(trifluoromethyl)-5,6-dihydro-4H-1,3-oxazin-4-yl)-4-fluorophenyl)-3-methyl-5-(2,2,2-trifluoroethoxy)pyrazine-2-carboxamide] | – | – | 49 nM | 325 nM | –
NC1=N[C@](CF)(c2cc(NC(=O)c3ncc(C(F)(F)F)cc3Cl)ccc2F)C[C@@H](C(F)(F)F)O1 [Example 44, N-(3-((4S,6S)-2-amino-4-(fluoromethyl)-6-(trifluoromethyl)-5,6-dihydro-4H-1,3-oxazin-4-yl)-4-fluorophenyl)-3-chloro-5-(trifluoromethyl)picolinamide] | – | – | 74 nM | 88 nM | –
C#CCOc1cnc(C(=O)Nc2ccc(F)c([C@]3(C)C[C@@H](C(F)(F)F)OC(N)=N3)c2)cn1 [Example 45, N-(3-((4S,6S)-2-amino-4-methyl-6-(trifluoromethyl)-5,6-dihydro-4H-1,3-oxazin-4-yl)-4-fluorophenyl)-5-(prop-2-yn-1-yloxy)pyrazine-2-carboxamide] | – | – | – | – | IC50 ([1]; average): 2.3 nM; IC50 ([2]; HEK293, HEK cells, average, read-out: HEK cell assay IC50): 0.5 nM
NC1=N[C@](CF)(c2cc(NC(=O)c3cnc(OCc4ncco4)cn3)ccc2F)C[C@@H](C(F)(F)F)O1 [Example 46, N-(3-((4S,6S)-2-amino-4-(fluoromethyl)-6-(trifluoromethyl)-5,6-dihydro-4H-1,3-oxazin-4-yl)-4-fluorophenyl)-5-(oxazol-2-ylmethoxy)pyrazine-2-carboxamide] | – | – | 11 nM | 19 nM | –
NC1=N[C@](CF)(c2cc(NC(=O)c3ccc(Br)cn3)ccc2F)C[C@@H](C(F)(F)F)O1 [Example 52, N-(3-((4S,6S)-2-amino-4-(fluoromethyl)-6-(trifluoromethyl)-5,6-dihydro-4H-1,3-oxazin-4-yl)-4-fluorophenyl)-5-bromopicolinamide] | 10 nM | 17.6 nM | – | – | –
NC1=N[C@](CF)(c2cc(NC(=O)c3ncc(Cl)cc3Cl)ccc2F)C[C@@H](C(F)(F)F)O1 [Example 58, N-(3-((4S,6S)-2-amino-4-(fluoromethyl)-6-(trifluoromethyl)-5,6-dihydro-4H-1,3-oxazin-4-yl)-4-fluorophenyl)-3,5-dichloropicolinamide] | 23 nM | 65.2 nM | – | – | –
C[C@@]1(c2cc(NC(=O)c3ccc(C#N)cn3)cnc2F)C[C@@H](C(F)(F)F)OC(N)=N1 [Example 62, N-(5-((4S,6S)-2-amino-4-methyl-6-(trifluoromethyl)-5,6-dihydro-4H-1,3-oxazin-4-yl)-6-fluoropyridin-3-yl)-5-cyanopicolinamide] | 52.3 nM | 28.6 nM | – | – | –

Continued, in another order:

IC50 ([1]; average IC50) | IC50 [2, 3] | IC50 [1, 4] | IC50 [2, 5] | SMILES | also measured
21 nM | 32 nM | – | – | COc1cnc(C(=O)Nc2ccc(F)c([C@]3(CF)C[C@@H](C(F)(F)F)OC(N)=N3)c2)cn1 [Example 2, N-(3-((4S,6S)-2-amino-4-(fluoromethyl)-6-(trifluoromethyl)-5,6-dihydro-4H-1,3-oxazin-4-yl)-4-fluorophenyl)-5-methoxypyrazine-2-carboxamide] | –
27.2 nM | 63.5 nM | – | – | NC1=N[C@](CF)(c2cc(Nc3ncnc4cc(Cl)cnc34)ccc2F)C[C@@H](C(F)(F)F)O1 [Example 11, (4S,6S)-4-(5-((7-chloropyrido[3,2-d]pyrimidin-4-yl)amino)-2-fluorophenyl)-4-(fluoromethyl)-6-(trifluoromethyl)-5,6-dihydro-4H-1,3-oxazin-2-amine] | –
375 nM | 163 nM | – | – | COc1cnc2c(Nc3ccc(F)c([C@]4(CF)C[C@@H](C(F)(F)F)OC(N)=N4)c3)nccc2c1 [Example 12, (4S,6S)-4-(2-fluoro-5-((3-methoxy-1,7-naphthyridin-8-yl)amino)phenyl)-4-(fluoromethyl)-6-(trifluoromethyl)-5,6-dihydro-4H-1,3-oxazin-2-amine] | –
72.2 nM | 95.9 nM | – | – | COc1cnc2c(Nc3ccc(F)c([C@]4(CF)C[C@@H](C(F)(F)F)OC(N)=N4)c3)ncnc2c1 [Example 13, (4S,6S)-4-(2-fluoro-5-((7-methoxypyrido[3,2-d]pyrimidin-4-yl)amino)phenyl)-4-(fluoromethyl)-6-(trifluoromethyl)-5,6-dihydro-4H-1,3-oxazin-2-amine] | –
– | – | 165 nM | 122 nM | COc1cccnc1Nc1ccc(F)c([C@]2(CF)C[C@@H](C(F)(F)F)OC(N)=N2)c1 [Example 15, (4S,6S)-4-(2-fluoro-5-((3-methoxypyridin-2-yl)-amino)phenyl)-4-(fluoromethyl)-6-(trifluoromethyl)-5,6-dihydro-4H-1,3-oxazin-2-amine] | –
– | – | 23700 nM | 5820 nM | NC1=N[C@](CF)(c2cc(Nc3cc(Cl)ccn3)ccc2F)C[C@@H](C(F)(F)F)O1 [Example 16, (4S,6S)-4-(5-((4-chloropyridin-2-yl)amino)-2-fluorophenyl)-4-(fluoromethyl)-6-(trifluoromethyl)-5,6-dihydro-4H-1,3-oxazin-2-amine] | –
29 nM | 19.7 nM | – | – | COc1ccc(C(=O)Nc2ccc(F)c([C@]3(CF)C[C@@H](C(F)(F)F)OC(N)=N3)c2)nc1 [Example 49, N-(3-((4S,6S)-2-amino-4-(fluoromethyl)-6-(trifluoromethyl)-5,6-dihydro-4H-1,3-oxazin-4-yl)-4-fluorophenyl)-5-methoxypicolinamide] | –

Read-outs that look alike come from different tables or passages of the source.
